{
  "sequences": {"note": "Sequences of proteins named here, by UniProt entry; tags and fusion partners are left off. Residues count along the entry.", "UniProt P22303, 32-614": "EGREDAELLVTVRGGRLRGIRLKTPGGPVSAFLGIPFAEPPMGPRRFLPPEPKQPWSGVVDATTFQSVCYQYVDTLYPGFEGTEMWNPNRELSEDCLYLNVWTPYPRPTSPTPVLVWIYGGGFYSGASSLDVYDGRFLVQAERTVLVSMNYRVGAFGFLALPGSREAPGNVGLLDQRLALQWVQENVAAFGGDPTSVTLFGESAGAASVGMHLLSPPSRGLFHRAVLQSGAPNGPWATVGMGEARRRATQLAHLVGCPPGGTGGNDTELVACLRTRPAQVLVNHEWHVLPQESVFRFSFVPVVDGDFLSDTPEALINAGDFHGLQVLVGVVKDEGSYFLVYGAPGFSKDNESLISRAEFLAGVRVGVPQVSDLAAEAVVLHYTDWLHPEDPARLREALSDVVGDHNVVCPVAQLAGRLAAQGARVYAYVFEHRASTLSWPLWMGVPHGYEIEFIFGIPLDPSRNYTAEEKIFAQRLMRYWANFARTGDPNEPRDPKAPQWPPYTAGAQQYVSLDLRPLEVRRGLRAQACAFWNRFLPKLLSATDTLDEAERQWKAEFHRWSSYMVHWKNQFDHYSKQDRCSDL"},
  "source": "paper PMC10985906",
  "about": "“Anticholinesterase activities of novel isoindolin-1,3-dione-based acetohydrazide derivatives: design, synthesis, biological evaluation, molecular dynamic study” (BMC Chemistry, 2024)",
  "origin": "cited, not measured here",
  "molecular_target": "AChE (Homo sapiens, UniProt P22303)",
  "details": "read-out: AChE IC50; previously reported; cited from earlier work",
  "data": [
    {"substance": "2-(benzylamino-2-hydroxyalkyl)isoindoline-1,3-dione", "values": [
      {"measurement": "IC50", "result": 3.33, "unit": "µM"}
    ]}
  ]
}
